Measurements published in US7247611.

The chains behind the UniProt entries cited, without tags or fusion partners. Residues count along the entry.
UniProt Q91ZX7, 20-4545 limits assumed: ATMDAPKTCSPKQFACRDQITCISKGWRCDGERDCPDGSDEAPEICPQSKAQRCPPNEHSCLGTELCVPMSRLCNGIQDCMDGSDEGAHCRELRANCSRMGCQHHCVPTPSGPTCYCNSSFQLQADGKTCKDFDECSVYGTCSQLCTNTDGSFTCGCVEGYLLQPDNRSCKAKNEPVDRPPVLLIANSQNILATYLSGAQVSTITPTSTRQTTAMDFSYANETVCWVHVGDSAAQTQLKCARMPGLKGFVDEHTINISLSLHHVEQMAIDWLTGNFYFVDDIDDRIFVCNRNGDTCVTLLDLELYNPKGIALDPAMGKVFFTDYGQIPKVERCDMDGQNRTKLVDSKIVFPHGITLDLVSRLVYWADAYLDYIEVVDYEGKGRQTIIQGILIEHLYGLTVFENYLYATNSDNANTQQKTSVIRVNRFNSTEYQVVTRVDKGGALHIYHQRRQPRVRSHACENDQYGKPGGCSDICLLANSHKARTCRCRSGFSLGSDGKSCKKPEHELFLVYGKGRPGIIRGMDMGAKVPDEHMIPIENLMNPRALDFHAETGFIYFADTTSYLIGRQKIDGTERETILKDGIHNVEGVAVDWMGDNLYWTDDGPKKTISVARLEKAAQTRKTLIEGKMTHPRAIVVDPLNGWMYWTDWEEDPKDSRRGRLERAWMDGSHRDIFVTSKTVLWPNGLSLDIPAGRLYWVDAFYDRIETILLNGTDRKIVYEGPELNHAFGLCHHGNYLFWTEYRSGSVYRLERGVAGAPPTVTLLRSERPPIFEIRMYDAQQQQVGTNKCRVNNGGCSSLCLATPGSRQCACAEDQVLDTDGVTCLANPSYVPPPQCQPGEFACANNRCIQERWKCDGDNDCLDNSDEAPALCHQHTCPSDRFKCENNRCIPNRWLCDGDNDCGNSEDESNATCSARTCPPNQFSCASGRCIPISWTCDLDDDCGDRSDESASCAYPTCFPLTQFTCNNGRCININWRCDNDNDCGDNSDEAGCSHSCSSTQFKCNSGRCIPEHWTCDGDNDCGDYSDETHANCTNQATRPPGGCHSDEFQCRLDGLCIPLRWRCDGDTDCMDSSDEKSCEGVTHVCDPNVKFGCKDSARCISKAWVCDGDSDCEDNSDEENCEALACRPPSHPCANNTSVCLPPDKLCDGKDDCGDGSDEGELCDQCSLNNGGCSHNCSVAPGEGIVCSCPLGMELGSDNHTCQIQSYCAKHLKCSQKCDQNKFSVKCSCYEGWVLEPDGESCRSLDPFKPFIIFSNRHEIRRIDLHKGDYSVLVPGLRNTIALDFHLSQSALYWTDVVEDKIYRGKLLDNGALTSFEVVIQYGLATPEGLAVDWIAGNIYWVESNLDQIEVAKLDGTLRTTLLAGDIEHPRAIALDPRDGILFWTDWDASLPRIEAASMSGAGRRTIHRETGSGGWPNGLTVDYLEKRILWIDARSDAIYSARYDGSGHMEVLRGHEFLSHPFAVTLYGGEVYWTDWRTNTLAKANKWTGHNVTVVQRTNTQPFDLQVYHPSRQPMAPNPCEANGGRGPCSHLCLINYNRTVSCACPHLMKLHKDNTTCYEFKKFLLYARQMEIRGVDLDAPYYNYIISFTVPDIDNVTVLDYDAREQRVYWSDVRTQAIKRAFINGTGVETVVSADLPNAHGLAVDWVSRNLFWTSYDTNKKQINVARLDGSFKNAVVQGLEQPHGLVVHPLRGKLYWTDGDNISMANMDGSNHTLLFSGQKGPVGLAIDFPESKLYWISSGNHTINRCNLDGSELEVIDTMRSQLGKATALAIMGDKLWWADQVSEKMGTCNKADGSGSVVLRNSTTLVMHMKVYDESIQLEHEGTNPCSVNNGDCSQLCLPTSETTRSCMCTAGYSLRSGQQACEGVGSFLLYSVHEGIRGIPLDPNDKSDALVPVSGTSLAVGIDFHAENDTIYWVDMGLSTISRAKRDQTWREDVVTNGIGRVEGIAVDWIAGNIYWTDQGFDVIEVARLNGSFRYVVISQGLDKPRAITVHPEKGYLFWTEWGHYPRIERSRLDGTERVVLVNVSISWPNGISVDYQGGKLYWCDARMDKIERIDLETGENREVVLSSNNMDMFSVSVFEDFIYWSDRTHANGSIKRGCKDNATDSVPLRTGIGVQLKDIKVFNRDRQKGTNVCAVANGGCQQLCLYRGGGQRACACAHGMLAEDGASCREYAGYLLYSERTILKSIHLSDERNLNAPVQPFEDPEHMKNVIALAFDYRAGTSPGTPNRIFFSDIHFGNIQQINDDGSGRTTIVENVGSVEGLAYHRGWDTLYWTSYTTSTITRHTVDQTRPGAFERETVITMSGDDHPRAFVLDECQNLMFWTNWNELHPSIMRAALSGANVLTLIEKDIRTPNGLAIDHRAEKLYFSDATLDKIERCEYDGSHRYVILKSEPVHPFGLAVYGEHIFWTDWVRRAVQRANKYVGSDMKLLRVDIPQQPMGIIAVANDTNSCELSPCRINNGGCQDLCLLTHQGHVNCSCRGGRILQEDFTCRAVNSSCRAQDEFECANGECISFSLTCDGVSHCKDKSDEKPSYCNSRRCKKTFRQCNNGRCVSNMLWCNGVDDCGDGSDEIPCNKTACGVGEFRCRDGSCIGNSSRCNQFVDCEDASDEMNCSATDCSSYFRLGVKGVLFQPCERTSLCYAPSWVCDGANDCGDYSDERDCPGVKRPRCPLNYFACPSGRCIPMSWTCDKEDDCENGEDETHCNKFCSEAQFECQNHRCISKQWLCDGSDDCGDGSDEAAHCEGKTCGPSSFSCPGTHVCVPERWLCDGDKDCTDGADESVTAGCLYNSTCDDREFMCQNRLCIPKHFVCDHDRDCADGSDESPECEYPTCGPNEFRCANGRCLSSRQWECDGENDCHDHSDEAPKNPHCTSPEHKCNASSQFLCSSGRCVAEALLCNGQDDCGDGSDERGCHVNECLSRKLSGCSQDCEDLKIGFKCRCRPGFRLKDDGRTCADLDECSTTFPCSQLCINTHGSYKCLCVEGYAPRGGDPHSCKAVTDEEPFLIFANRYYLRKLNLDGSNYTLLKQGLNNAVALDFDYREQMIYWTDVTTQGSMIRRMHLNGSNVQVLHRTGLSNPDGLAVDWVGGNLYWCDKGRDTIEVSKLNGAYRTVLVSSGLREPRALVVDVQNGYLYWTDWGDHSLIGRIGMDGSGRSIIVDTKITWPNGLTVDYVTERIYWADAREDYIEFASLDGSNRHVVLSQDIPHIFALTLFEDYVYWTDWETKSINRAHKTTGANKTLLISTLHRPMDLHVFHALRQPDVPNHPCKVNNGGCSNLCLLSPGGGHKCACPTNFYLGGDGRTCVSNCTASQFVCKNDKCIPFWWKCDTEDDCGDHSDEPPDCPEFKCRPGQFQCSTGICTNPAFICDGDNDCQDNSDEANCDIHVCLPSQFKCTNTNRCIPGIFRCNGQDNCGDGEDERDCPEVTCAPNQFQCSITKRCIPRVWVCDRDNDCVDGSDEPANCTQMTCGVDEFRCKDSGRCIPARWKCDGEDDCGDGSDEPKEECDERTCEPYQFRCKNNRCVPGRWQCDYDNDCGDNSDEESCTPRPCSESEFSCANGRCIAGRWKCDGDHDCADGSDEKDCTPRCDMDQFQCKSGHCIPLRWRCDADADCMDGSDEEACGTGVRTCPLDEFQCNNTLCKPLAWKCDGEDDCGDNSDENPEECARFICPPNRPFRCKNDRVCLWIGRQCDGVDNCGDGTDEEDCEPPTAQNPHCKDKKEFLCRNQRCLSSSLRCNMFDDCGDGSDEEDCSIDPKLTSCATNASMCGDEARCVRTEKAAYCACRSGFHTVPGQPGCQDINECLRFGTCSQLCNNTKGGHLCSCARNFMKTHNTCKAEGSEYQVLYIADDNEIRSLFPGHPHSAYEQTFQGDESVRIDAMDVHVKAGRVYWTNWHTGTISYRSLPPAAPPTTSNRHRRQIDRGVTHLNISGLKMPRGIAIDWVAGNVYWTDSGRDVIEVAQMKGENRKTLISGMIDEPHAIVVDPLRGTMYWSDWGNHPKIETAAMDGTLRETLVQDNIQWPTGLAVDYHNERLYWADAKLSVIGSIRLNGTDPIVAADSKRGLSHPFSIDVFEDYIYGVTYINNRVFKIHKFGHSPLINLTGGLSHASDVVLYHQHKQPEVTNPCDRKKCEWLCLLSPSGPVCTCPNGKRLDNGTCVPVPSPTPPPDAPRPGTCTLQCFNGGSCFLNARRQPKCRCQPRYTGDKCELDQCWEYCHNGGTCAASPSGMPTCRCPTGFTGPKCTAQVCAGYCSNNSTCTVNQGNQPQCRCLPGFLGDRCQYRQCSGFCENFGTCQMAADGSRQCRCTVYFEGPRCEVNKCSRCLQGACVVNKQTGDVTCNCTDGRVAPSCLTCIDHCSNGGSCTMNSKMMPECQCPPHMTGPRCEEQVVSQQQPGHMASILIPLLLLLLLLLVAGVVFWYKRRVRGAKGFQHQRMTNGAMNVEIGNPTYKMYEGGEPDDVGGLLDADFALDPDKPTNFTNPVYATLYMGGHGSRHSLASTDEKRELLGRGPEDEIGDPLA

Target: α2-macroglobulin receptor/low density lipoprotein-related receptor protein on LM-TK- cells (UniProt Q91ZX7)
Experiment: 125I-scuPA on LM-TK- cells at 4 C, Scatchard analysis, with peptide EEIIMD

Kd: 35 nM
Substance: scuPA in the presence of peptide EEIIMD (from UniProt P00749 21-431) (other; radiolabeled with 125I (iodobeads) in the binding assays)
